Literature values as cited in patent US20040077540A1, “Compositions and methods for modulating physiology of epithelial junctional adhesion molecules for enhanced mucosal delivery of therapeutic compounds” (Nastech Pharmaceutical Company Inc., priority 2002, published 2004).
Read-outs that look alike come from different tables or passages of the source.

How the values were obtained:
neopterin = settings: 12 MIU (60 μg) dose, Munafo et al. 1998, cited from earlier work
[1] = 12 MIU (60 μg) dose, Munafo et al. 1998, cited from earlier work
β2-microglobulin = settings: 12 MIU (60 μg) dose, Munafo et al. 1998, cited from earlier work

Substance	Serum neopterin AUC0-144 h (neopterin; IM) [nmol·h/L]	Serum neopterin Cmax (neopterin; IM) [nmol/L]	Serum neopterin tmax (neopterin; IM) [h]	Serum neopterin AUC0-144 h (neopterin; SC) [nmol·h/L]	Serum neopterin Cmax (neopterin; SC) [nmol/L]	Serum neopterin tmax (neopterin; SC) [h]	Serum IFN-β AUC0-24 h ([1]; IM) [IU h/ml]	Serum IFN-β tmax ([1]; IM) [h]	Serum IFN-β AUC0-24 h ([1]; SC) [IU h/ml]	Serum IFN-β tmax ([1]; SC) [h]	Serum β2-microglobulin AUC0-24 h (β2-microglobulin; IM) [mg·h/L]	Serum β2-microglobulin Cmax (β2-microglobulin; IM) [mg/L]	Serum β2-microglobulin tmax (β2-microglobulin; IM) [h]	Serum β2-microglobulin AUC0-24 h (β2-microglobulin; SC) [mg·h/L]	Serum β2-microglobulin Cmax (β2-microglobulin; SC) [mg/L]	Serum β2-microglobulin tmax (β2-microglobulin; SC) [h]
Rebif ®: interferon-β-1a (Rebif®, Serono)	2930	35	36	2700	32	36	70	3.5	65	3	277	2.4	36	271	2.3	24
Avonex ®: interferon-β-1a (Avonex®, Biogen, Inc.)	2974	36	36	–	–	–	65	4	–	–	270	2.3	36	–	–	–
